Source: patent US20090055964A1, “MPO1 GENE AND PROTEIN AND METHODS OF USE” (priority 2006, published 2009)

Legend:
[1] = biological target: T1, recombinant TRX-NtMPO1 fusion protein (Nicotiana tabacum, UniProt A0A1S4BDC4); assay: spectrophotometric amine oxidase assay of recombinant TRX-NtMPO1 with diamine substrates
T1 sequence (A0A1S4BDC4 1-790): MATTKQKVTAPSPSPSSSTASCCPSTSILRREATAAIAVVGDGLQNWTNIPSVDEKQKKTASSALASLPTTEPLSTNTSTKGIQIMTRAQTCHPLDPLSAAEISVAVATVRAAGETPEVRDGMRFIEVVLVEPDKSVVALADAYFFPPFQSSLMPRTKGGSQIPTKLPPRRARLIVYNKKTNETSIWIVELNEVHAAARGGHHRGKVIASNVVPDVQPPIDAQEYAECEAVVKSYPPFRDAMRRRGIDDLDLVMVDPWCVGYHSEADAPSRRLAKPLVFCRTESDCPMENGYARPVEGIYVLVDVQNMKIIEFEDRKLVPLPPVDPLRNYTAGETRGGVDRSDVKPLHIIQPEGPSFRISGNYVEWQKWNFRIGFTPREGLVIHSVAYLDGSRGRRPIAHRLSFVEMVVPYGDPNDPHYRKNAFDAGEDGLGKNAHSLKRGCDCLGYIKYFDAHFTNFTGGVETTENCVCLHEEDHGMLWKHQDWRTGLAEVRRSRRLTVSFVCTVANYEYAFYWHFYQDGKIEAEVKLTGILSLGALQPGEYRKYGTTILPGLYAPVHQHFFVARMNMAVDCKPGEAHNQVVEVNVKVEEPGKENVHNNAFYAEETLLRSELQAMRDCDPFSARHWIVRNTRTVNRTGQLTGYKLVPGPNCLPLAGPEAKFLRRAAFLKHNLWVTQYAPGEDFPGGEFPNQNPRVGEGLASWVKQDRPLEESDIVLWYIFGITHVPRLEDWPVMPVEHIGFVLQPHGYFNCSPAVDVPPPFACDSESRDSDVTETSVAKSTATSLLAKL
Description: This modified fragment was cloned into pCR2.1 (Invitrogen) to yield pJGJ367. […] Finally, a 2.6 Kb NcoI-XhoI (partial) fragment was cut from pJGJ369 and ligated into pET32a+ similarly cut, to yield pJGJ389. Plasmid pJGJ389 was transformed into the Rosetta E. coli strain (Novagen, Madison, Wis.) for expression of a recombinant […] protein. Mid-log phase Rosetta/pJGJ389 cells were cultured overnight in LB media supplemented with 100 ug/ml Ampicillin, 30 ug/ml Chloramphenicol, and 0.2 mM isopropyl-β-D-thiogalactoside at 18° C. at 250 rpm. The cells were pelleted, lysed, and the native protein extract incubated with Ni-NTA superflow resin, and the TRX-MPO1 was eluted as per manufacture's instructions (Qiagen, Valencia, Calif.). The TRX-MPO1 enriched extract was mixed 1:1 (v:v) with 100% glycerol and stored at −20° C.

[2] = test system: CNCCCCN; assay: purified protein, by the assay type; settings: other: substrate kinetics, Lineweaver-Burk plots, three independent extracts; 18.0 °C
[3] = test system: NCCCCCN; assay: purified protein, by the assay type; settings: other: substrate kinetics, Lineweaver-Burk plots, three independent extracts; 18.0 °C

Compound | oxidative deamination as substrate by recombinant TRX-MPO1 [1] | Km [2] | Km [3]
NCCCCN [putrescine] | oxidatively deaminated |  | 
recombinant TRX-NtMPO1 fusion protein (Nicotiana tabacum) |  | 190 ± 20 µM | 1790 ± 160 µM
